## scFv variants of Ab-95 (light chain) against a SARS-CoV-2 spike peptide

Source: Engelhart et al. 2022 (doi:10.1038/s41597-022-01779-4), MIT Lincoln Laboratory and A-Alpha Bio; data file from the FLAb repository.

All variants were tested on one target, the spike HR2 peptide PDVDLGDISGINAS (SARS-CoV-2).

Parent: Ab-95, a human scFv built as VH, the linker GGGGSGGGGSGGGGS, VL. Only the CDRs of the light chain vary.
VH: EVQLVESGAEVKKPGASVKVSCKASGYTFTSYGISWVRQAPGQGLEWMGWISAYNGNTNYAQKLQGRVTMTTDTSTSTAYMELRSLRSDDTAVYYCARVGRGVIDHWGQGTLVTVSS
VL: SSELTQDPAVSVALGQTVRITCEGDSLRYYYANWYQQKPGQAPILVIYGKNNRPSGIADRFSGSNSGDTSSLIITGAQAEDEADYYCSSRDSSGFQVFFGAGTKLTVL

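The starting antibody came from a phage panning campaign against this peptide. AAYL52 was designed without a model: most single CDR substitutions and a random sample of double and triple ones. Affinity was read by AlphaSeq, a pooled yeast mating assay with surface-displayed partners. The frequency of each diploid, read from paired DNA barcodes, reflects how well the two displayed proteins bind. Each replicate has its own calibration line, from reference interactions of the BCL2 family. The assay was run in three technical replicates.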

Substitutions are numbered in sequence along the VL above, starting at 1 (not Kabat). The read-out is the apparent dissociation constant on a log10 scale (nM): the lower, the stronger. The mean shown is taken over the replicates in which the pair was detected. A pair that was not seen in that replicate is written "nd"; this usually means weak binding, but a binder can also be missed. Empty control strains, which show no peptide, gave a signal in 28% of pairings with library AAYL52; the median was 3.91 and 95% of these signals were weaker than 2.90. No background was subtracted. The control count says in how many pairings with the empty strains this scFv gave a signal, with their mean in brackets. For reference, the parent read 2.31 as the reference entry and 2.25 as a member of this library.

changes | log10 Kd (nM) by replicate | mean, log10 nM | control signals
K50L+S88P+S92G | nd / nd / nd | nd | 0 of 9
R53F+R90S+F95I | 3.66 / nd / nd | 3.66 | 3 of 9 (3.54)
R28K+P54G+S88T | 2.88 / 3.51 / 4.03 | 3.47 | 0 of 9
E23L+A32H+S55H | 2.77 / nd / 4.19 | 3.48 | 2 of 9 (4.52)
Y31M+S88G+Q96T | 2.01 / 1.34 / 1.18 | 1.51 | 2 of 9 (3.99)
D25N+Y29F+F95R | 2.38 / 2.00 / 2.34 | 2.24 | 1 of 9 (3.69)
N33D+S55D+Q96D | nd / 3.65 / nd | 3.65 | 2 of 9 (3.18)
S26K+K50W+S89G | nd / nd / nd | nd | 3 of 9 (2.99)
D25K+K50D+N52R | 2.26 / 1.81 / 2.03 | 2.03 | 5 of 9 (3.97)
E23N+R28L+K50Y | 2.38 / 2.42 / 1.49 | 2.10 | 0 of 9
R28D+K50H+F98A | 2.58 / 3.77 / 3.22 | 3.19 | 0 of 9
G49F+P54T+S55A | nd / nd / nd | nd | 1 of 9 (3.05)
D25S+K50H+R53S | 2.95 / 2.60 / 3.81 | 3.12 | 3 of 9 (4.36)
G24A+L27F+P54Y | 3.95 / nd / nd | 3.95 | 3 of 9 (3.96)
Y31E+S55R+G94N | nd / 3.25 / nd | 3.25 | 0 of 9
Y31G+K50E+N52Y | 2.05 / 1.93 / 1.58 | 1.85 | 2 of 9 (4.31)
S26E | 4.00 / 3.43 / 3.68 | 3.70 | 4 of 9 (3.59)
N33Q+N52V+F95C | nd / nd / nd | nd | 0 of 9
E23S+Y31T+R53Y | 3.38 / 3.90 / 2.62 | 3.30 | 1 of 9 (4.89)
E23G+Y30N+N33I | 2.79 / 2.64 / 2.38 | 2.60 | 4 of 9 (4.14)
R28A+Y30P+N33G | 4.08 / nd / nd | 4.08 | 1 of 9 (3.22)
R53Y+R90Q+F95H | nd / 3.78 / nd | 3.78 | 2 of 9 (3.75)
D25S+N52G+S88V | 2.72 / 2.72 / 3.05 | 2.83 | 4 of 9 (4.09)
S26T+Q96F+F98Y | 4.18 / 2.87 / nd | 3.53 | 1 of 9 (3.88)
R28V+R90F+D91G | 2.49 / 2.63 / 3.12 | 2.75 | 3 of 9 (3.81)
G24T+S92Q+G94W | nd / nd / nd | nd | 1 of 9 (4.91)
Y31Q+S55V | 1.39 / 1.19 / 0.98 | 1.19 | 5 of 9 (4.28)
E23T+G49F | 4.16 / 3.87 / nd | 4.02 | 4 of 9 (4.21)
A32E+K50S+S55G | nd / 3.33 / nd | 3.33 | 1 of 9 (4.17)
Y29R+Y31E+S88A | 1.51 / 1.75 / 1.07 | 1.44 | 5 of 9 (3.82)
S26D+K50G+G94S | 3.11 / 3.64 / 3.30 | 3.35 | 3 of 9 (3.39)
N52A+S89M+D91V | 2.69 / 3.05 / 2.65 | 2.80 | 4 of 9 (4.17)
E23T+N33F+P54S | 3.27 / 5.60 / 3.35 | 4.08 | 2 of 9 (3.50)
Y31H+S88N+S92M | 1.72 / 1.40 / 0.93 | 1.35 | 1 of 9 (3.77)
P54D+G94N+V97K | 4.53 / nd / nd | 4.53 | 3 of 9 (3.32)
G49M+S92I+Q96Y | 3.75 / nd / 4.76 | 4.26 | 4 of 9 (4.47)
A32H+G49N+D91C | 3.45 / 3.81 / 3.16 | 3.47 | 2 of 9 (4.23)
Y30P+G94D | 1.92 / 2.32 / 2.03 | 2.09 | 3 of 9 (3.90)
S26L+D91F+G94P | 3.61 / 2.66 / 3.69 | 3.32 | 4 of 9 (4.26)
G24D+G49Y+R90K | nd / nd / nd | nd | 2 of 9 (3.61)
G49W+R53V+S92H | 3.65 / nd / nd | 3.65 | 3 of 9 (4.01)
S89V+S93G+F98H | 2.20 / 2.11 / 2.89 | 2.40 | 0 of 9
S26V+L27R+Y29W | nd / nd / nd | nd | 2 of 9 (3.96)
L27S+Y29M+S88G | 4.97 / 4.66 / nd | 4.82 | 4 of 9 (3.88)